System: Chlamydia trachomatis (serovar D) in HEp-2 cells
Experiment: VITA PCR (triplex RT-PCR, GAT1/2 and NED), Treatment Protocol A
Assay type: cell-based
Details: <MIC (0.008 μg/mL), added 4 h PI, harvested 44 h PI; TR 2

Compound: CC[C@H]1OC(=O)[C@H](C)[C@@H](O[C@H]2C[C@@](C)(OC)[C@@H](O)[C@H](C)O2)[C@H](C)[C@@H](O[C@@H]2O[C@H](C)C[C@H](N(C)C)[C@H]2O)[C@](C)(O)C[C@@H](C)CN(C)[C@H](C)[C@@H](O)[C@]1(C)O [Azithromycin]
- VITA Index: 3.66
